## Yeast mating assay 2: variants of the scFv Ab-95

Antigen: PDVDLGDISGINAS, a 14-residue peptide of the SARS-CoV-2 spike HR2 region.

Parent: Ab-95, a human scFv built as VH, the linker GGGGSGGGGSGGGGS, VL. Only the CDRs of the light chain vary.
VH: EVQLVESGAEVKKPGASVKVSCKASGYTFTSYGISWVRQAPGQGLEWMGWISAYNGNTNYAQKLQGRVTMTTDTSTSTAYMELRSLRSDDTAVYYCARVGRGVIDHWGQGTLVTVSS
VL: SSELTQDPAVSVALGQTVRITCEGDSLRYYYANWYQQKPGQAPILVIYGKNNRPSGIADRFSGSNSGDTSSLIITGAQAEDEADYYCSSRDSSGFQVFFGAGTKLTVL

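Phage display of a naive human antibody library on the peptide gave the parent. Library AAYL52 holds single substitutions and randomly drawn double and triple substitutions in the CDRs. The scFvs were displayed on barcoded MATa yeast, the peptide on MATalpha yeast. Mating (16 h, 30 °C) was followed by selection of diploids and sequencing of their barcodes. The ratio of observed to expected reads was calibrated, replicate by replicate, on BCL2-family standards whose Kd was known from biolayer interferometry. There are three technical replicates.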

The parent's light chain CDRs are EGDSLRYYYAN, GKNNRPS, SSRDSSGFQVF; each variant's own CDRs replace them letter for letter.
The read-out is the apparent dissociation constant on a log10 scale (nM): the lower, the stronger.
A pair that was not seen in that replicate is written "n.d."; this usually means weak binding, but a binder can also be missed.
Empty control strains, which show no peptide, gave a signal in 28% of pairings with library AAYL52; the median was 3.91 and 95% of these signals were weaker than 2.90. No background was subtracted. The control count says in how many pairings with the empty strains this scFv gave a signal, with their mean in brackets.

CDR-L1,CDR-L2,CDR-L3,log10 Kd (nM) by replicate,control signals
EGDSLQYYYAN,GKNNRPS,DSRDSSVFQVF,n.d. n.d. 3.99,1/9 (3.62)
SGDSTRYYWAN,GKNNRPS,SSRDSSGFQVF,3.24 3.34 2.36,3/9 (4.17)
EGDSLRYYYAN,GKNNRPS,SSRDSRAFQVF,3.30 2.52 2.30,3/9 (3.57)
EGDSLRYYYAN,GKNNRPQ,SSRDSSGFEVF,2.31 2.62 2.16,4/9 (4.65)
EGDSSRYYYLN,GKNNRPS,ASRDSSGFQVF,n.d. 5.70 n.d.,6/9 (3.75)
EGDSLRYYYAN,GTNNRPS,SSYDSSGFQIF,n.d. n.d. n.d.,3/9 (3.55)
EGDSLRWYYAN,GKNNRPS,SSRNSSGFQVL,3.14 2.73 2.86,6/9 (3.95)
EGDSLRYYYAN,GCNNRPS,SSYDSSGNQVF,n.d. n.d. n.d.,2/9 (3.80)
EGDSLRYYYAN,GKNNVPS,SSADSSGFQVF,n.d. n.d. n.d.,3/9 (4.00)
EGDPLRGYYEN,GKNNRPS,SSRDSSGFQVF,3.03 2.92 2.64,6/9 (4.36)
EGDSLRYYYAN,GKNNRPS,SSRELSGFQVF,3.98 n.d. n.d.,1/9 (2.05)
EGISLRYYYAN,GKNNRKS,SSRMSSGFQVF,n.d. 4.06 n.d.,0/9
EGDSLRYYYAN,GKNNRPS,CSRDSSGFQVK,2.53 3.33 2.66,1/9 (3.11)
TGDSLREYYAN,GKNNRPS,SSRDSSGFQVF,3.18 2.84 2.44,0/9
EGDSLRYYYAN,GKNNRPS,SSRDSLGPQVQ,5.43 n.d. n.d.,2/9 (3.80)
ESDSLRYYYAN,GKNNVPS,SSIDSSGFQVF,4.55 5.73 n.d.,1/9 (4.30)
EGDSLRYYYAN,GKNLRPS,SSRDSSGFQVY,2.09 2.25 1.64,3/9 (3.66)
ECDSLRYYYAN,GKNNRPS,SSRDSSWFQLF,4.61 3.64 n.d.,4/9 (3.66)
EGWSLRYYYAN,GKNNRPS,SSRDSSNQQVF,2.61 2.27 3.44,6/9 (4.33)
EGDSLRYYIAN,YKPNRPS,SSRDSSGFQVF,n.d. n.d. n.d.,0/9
EGDSLRYYYAN,GKNNRPS,SSQDHSRFQVF,n.d. 4.68 n.d.,0/9
EGDSLRYYYAN,GKNNRYS,SSDPSSGFQVF,n.d. 4.35 3.58,3/9 (4.59)
EGCSLRYYYAN,GKNNRPS,SSRDSKGFQVF,3.26 3.67 3.19,2/9 (4.21)
EKDSLRYYYAN,GKSNRPS,SSRDSSDFQVF,n.d. n.d. 4.80,3/9 (4.00)
EGDSLRYHYAP,GHNNRPS,SSRDSSGFQVF,4.11 n.d. 4.79,2/9 (4.22)
EGDSLRYYYAN,GKDNRPS,SSRDSSGFDVF,2.69 2.60 2.32,8/9 (3.96)
EGDSLRYYYAN,GKNCRPS,SSRDTSGFQVF,4.04 2.75 3.35,2/9 (3.77)
EGDLLRYYYAN,GKNNRPS,SSRDSTGFQHF,4.11 n.d. n.d.,0/9
EGDSLRYWYAN,GKNNRPS,SSRDSSAFQVW,n.d. n.d. n.d.,1/9 (4.53)
EHDSLCVYYAN,GKNNRPS,SSRDSSGFQVF,4.34 n.d. n.d.,1/9 (4.06)
EGDSLRYYYAN,GKNNRRS,SSRDSSGFLVI,3.00 n.d. n.d.,8/9 (3.90)
EGQSLRYYYAN,GKANRPS,SSRDSNGFQVF,3.09 2.72 3.00,1/9 (2.94)
EGDSLRSWYAN,GKNNRPS,SSRDSSGFQVY,2.09 2.36 1.68,1/9 (4.16)
EGCSLRYYKAN,GKNNRPS,SSRDMSGFQVF,5.51 5.00 3.58,2/9 (3.79)
EEDSLRYYYAN,IKNNRPS,SSRDSSGFQVF,4.20 n.d. n.d.,0/9
EGDSLRYYYAN,AKNNKPS,SDRDSSGFQVF,4.64 n.d. n.d.,3/9 (3.88)
EGHSLHYYKAN,GKNNRPS,SSRDSSGFQVF,3.52 3.87 n.d.,2/9 (4.04)
TGDSLRYYYAN,GKNNRPS,PSRDSSGNQVF,2.38 2.41 3.45,1/9 (4.30)
EGDSLRMYMAN,GKNWRPS,SSRDSSGFQVF,3.72 3.10 3.53,5/9 (3.99)
EGDSLRYYYAN,GKNNKPS,SSRDSSGFQYF,2.45 3.54 4.25,3/9 (4.61)
EGDSLRTYDAN,GHNNRPS,SSRDSSGFQVF,0.77 0.68 -0.01,7/9 (4.60)
EGDSLRYYYAN,GKNNRPS,SSKDSSGCQVF,n.d. n.d. n.d.,1/9 (3.59)
EGDLLRYYYAN,GKNNRPS,SSRDSSGFQVF,3.91 n.d. n.d.,5/9 (4.11)
EGDMLRYYYAN,GKNNRPS,SVRDSSGFNVF,2.47 2.03 2.73,1/9 (3.16)
EGDMLPYYYAN,GKNDRPS,SSRDSSGFQVF,n.d. 3.34 3.44,2/9 (4.04)

Excerpt, the final 3 entries:

CDR-L1,CDR-L2,CDR-L3,log10 Kd (nM) by replicate,control signals
EGDLLRYYYAN,GKNNRPS,SSRDSSGFQVF,3.91 n.d. n.d.,5/9 (4.11)
EGDMLRYYYAN,GKNNRPS,SVRDSSGFNVF,2.47 2.03 2.73,1/9 (3.16)
EGDMLPYYYAN,GKNDRPS,SSRDSSGFQVF,n.d. 3.34 3.44,2/9 (4.04)

In this assay the parent's reference entry averaged 2.31; its copy inside this library read 2.25.

From the AlphaSeq antibody data of Engelhart et al. 2022 (doi:10.1038/s41597-022-01779-4), copy in the FLAb collection.